# Measurements: US6737064B2, “Method for the diagnosis of neoplastic tissue comprising administering a vasopermeability enhancing peptide of human interleukin-2” (The University of Southern California, priority 1996, dated 2004)
# Columns and labels:
# [1] = tested on: Raji tumor-bearing nude mice; test: In vivo vasopermeability / biodistribution study, Raji lymphoma model (tumor uptake of 125I-Lym-1 F(ab')2 after pre-treatment); settings: i.v., enhanced Lym-1 uptake relative to Lym-1/IL-2 conjugate, 30-40 pM of peptide per assay
# Procedure: The Raji lymphoma cell line was used to produce heterotransplants in 6-week-old female nude mice by the subcutaneous injection of a 0.2 ml inoculum consisting of 4×10^7 Raji cells and 4×10^6 human fetal fibroblast feeder cells in the left thigh. Three days prior to injection, the mice were irradiated with 400 rads using a cesium irradiator to ensure a high take rate of the implanted cells. The tumors were grown for 14-18 days until they grew to approximately 1 cm in diameter.
# To test the relative effects of the immunoconjugates on the biodistribution and tumor uptake of Lym-1 or TNT-1 in tumor-bearing mice, separate groups of 4-5 mice were given intravenous injections of 30 μg of antibody alone or antibody conjugate. At 2.5 hr after injection, each group received 50 μCi of ^125I-labeled Lym-1 or TNT-1 F(ab′)2 fragment as tracer.
# All animals were sacrificed 72 hr later, by sodium pentobarbital overdose, for biodistribution analysis. Various organs, blood, and tumor were removed, weighed, and samples were counted in a gamma counter. For each mouse, data were expressed as tumor:organ ratio (cpm per gram tumor/cpm per gram organ) and percent injected dose/gram (% ID/g).
# Based on the primary, secondary and tertiary structures of IL-2, a series of distinct peptides were synthesized in order to identify the sequences responsible for increased vascular permeability. […]
# [2] = tested on: CTLL-2 IL-2 dependent indicator cell line; test: IL-2 bioassay (proliferation assay, 3H-thymidine); type: cell-based; settings: 3-fold serial dilutions from 8.1 pM; 18 hr + 6 hr 3H-thymidine pulse
# Procedure: The growth of an IL-2 dependent indicator cell line, CTLL-2, was used to compare the biologic activity of PEP, PEP conjugates, and positive control human recombinant IL-2. Samples of PEP, PEP conjugates, or IL-2 standards (100μ/well) were serially diluted 3-fold from an initial concentration of 8.1 pM (recombinant IL-2) in sterile 96-well flat bottom microtiter plates. CTLL cells (4×10^5) in a volume of 50 μl were added to each well. Plates were incubated for 18 hr in 5% CO2 at 37° C., then pulsed with 0.5 μCi of ^3H-thymidine for 6 hr (25 μl of a 1:50 dilution of 1.0 mCi in media; Amersham, Arlington Hts. Ill.) prior to harvesting wells onto glass fiber filter paper and liquid scintillation counting in glass minivials.
# [3] = tested on: K562, Daudi and P815 target cell lines; test: 51Cr release microcytotoxicity assays (induction of LAK cell killing); type: cell-based, human PBMC or murine splenocyte effectors; settings: effectors activated 4 days; 13.7 pM or 80 pM PEP, 13.7 pM conjugates; effector:target 30:1, 10:1, 3.3:1
# Procedure: The ability of PEP and PEP conjugates to induce LAK cell killing was tested by ^51Cr release microcytoxicity assays in 96-well microtiter plates as previously described (Katsanis, E., et al., Blood 78: 1286-1291 (1991). Two populations of effector cells were used, human peripheral blood mononuclear cells (PBMC) or murine splenocytes. The effector cells were isolated by Ficoll density gradient centrifugation and activated for 4 days in vitro in media containing 13.7 pM or 80 pM PEP, or 13.7 pM antibody/PEP or HSA/PEP conjugates at a density of 0.5×10^6 cells/ml. Freshly isolated effectors in media without human recombinant IL-2 were used as controls. Human cells were cultured in RPMI-1640 with 2 mM L-glutamine, 100 U/ml penicillin, 100 μg/ml streptomycin, and 10% fetal calf serum. Murine cells were grown in the same culture medium as above, but were supplemented with 10 mM non-essential amino acids, 100 mM sodium pyruvate, and 25 mM 2-mercaptoethanol (Sigma).
# Three different tumor target cell lines were tested. PBMC effectors were tested against two malignant tumor target cell lines, K562 (NK sensitive) and Daudi (NK resistant). […]
substance,measurement,setting,value
IL-2: Recombinant human IL-2 (aa 1-133) from Hoffman La-Roche or Chiron,Vasopermeability (% Lym-1/IL-2),[1],75 % Lym-1/IL-2
same,support of proliferation of CTLL-2 T cell line,[2],highly active
same,induction of LAK cell killing of target cell lines,[3],highly active
